Assays:
[1] = system: EGFR-Ras-ERK signaling pathway in MCF10A cells; assay: ERK activation by AC EF stimulation (ERKTR reporter) in blocker tests; assay type: cell-based
[2] = system: EGFR-Ras-ERK signaling pathway in MCF10A cells; assay: ERK activation by EGF chemical stimulation (ERKTR reporter), control groups of the blocker tests; assay type: cell-based

For `CNC(=O)c1cc(Oc2ccc(NC(=O)Nc3ccc(Cl)c(C(F)(F)F)c3)cc2)ccn1` [sorafenib], the “effect on ERK activation under AC EF stimulation” value [1] was “abolished ERK activation” and the “effect on ERK activation by EGF stimulation” value [2] was “abolished ERK activation”.

— patent US11634702B2, “Cell signaling pathway activation by local AC electric field” (ARIZONA BOARD OF REGENTS ON BEHALF OF ARIZONA STATE …, priority 2018, dated 2023)
